Values quoted from earlier work, collected in patent US20060135510A1 (The Trustees of the University of Pennsylvania, priority 2004, published 2006).

Test system: metastatic breast cancer
Settings: first line of treatment in metastatic breast cancer; cited from earlier work

Trastuzumab
response rate: 25%
